Data taken from PMC11956017, “Design of Benzyl-triazolopyrimidine-Based NADPH Oxidase Inhibitors Leads to the Discovery of a Potent Dual Covalent NOX2/MAOB Inhibitor” (Journal of Medicinal Chemistry, 2025).

Protein sequences, listed by entry. Tags and fused reporters are not part of them.
UniProt P27338, whole entry: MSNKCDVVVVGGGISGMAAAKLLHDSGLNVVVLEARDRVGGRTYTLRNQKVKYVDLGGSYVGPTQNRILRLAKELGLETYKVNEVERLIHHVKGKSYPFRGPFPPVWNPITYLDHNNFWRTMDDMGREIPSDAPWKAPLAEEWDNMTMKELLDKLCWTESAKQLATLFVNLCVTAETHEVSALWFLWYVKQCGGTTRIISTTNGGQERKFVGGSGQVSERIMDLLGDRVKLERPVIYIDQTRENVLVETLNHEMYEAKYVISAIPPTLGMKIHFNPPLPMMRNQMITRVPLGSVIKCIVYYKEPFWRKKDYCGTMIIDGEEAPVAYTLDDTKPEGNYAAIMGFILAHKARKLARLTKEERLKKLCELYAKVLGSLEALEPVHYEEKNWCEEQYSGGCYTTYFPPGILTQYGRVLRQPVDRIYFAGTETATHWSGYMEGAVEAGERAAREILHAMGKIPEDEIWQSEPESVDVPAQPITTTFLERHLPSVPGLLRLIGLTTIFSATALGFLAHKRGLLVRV

Legend:
[1] = tested on: human NOX2; assay: Human NOX2 isolated membranes, MCLA assay; assay type: biochemical; details: from membrane IC50 values
Description: IC50 determinations were performed as described, with the same aforementioned modifications for covalent inhibition. Briefly, 20 μg of NOX2-p22^phox membranes was added to a reaction mix with a 65 mM sodium phosphate buffer (pH 7.0), 0.5 μM FAD, 130 μM LiDS, 160 nM p67^phox, p47^phox, Rac1 Q61L, and 1 μM MCLA or 200 μM bovine cytochrome c. The estimated final protein concentration based on the heme’s absorbance was 60 nM. Compounds were incubated for 1 h at 25 °C, at varying concentrations. The reaction started by adding 240 μM NADPH, and measurements were taken by using a GloMax plate reader (Promega; MCLA) or a Cary 100 UV–vis spectrophotometer (Varian; cytochrome c).

[2] = biological target: T1, human MAOB (Homo sapiens, UniProt P27338); assay: Purified MAOB, Amplex Red/horseradish peroxidase coupled assay; assay type: biochemical; details: abstract
T1 construct: made in house; host or cells: Pichia pastoris
Description: IC50 values on human MAOA and human MAOB were determined using the Amplex Red/horseradish peroxidase coupled assay. […] Measurements were performed using a ClarioStar plate reader (excitation 572 nm and emission 583 nm) (BMG Labtech). IC50 values were obtained by fitting the percentage of inhibition versus log(inhibitor concentration) using GraphPad software 7.0. The covalent modification of the flavin upon the reaction with the propargylamine-containing inhibitors was monitored spectrophotometrically using a diode array UV/visible spectrophotometer (Agilent Technologies). The reaction was started by adding a 5-fold molar excess of compound 9a to 20 μM protein in a volume of 100 μL of a purification buffer. The cofactor covalent modification was monitored over time following the shift of the enzyme-bound flavin (peaks at 370 and 456 nm) to 410 nm (ε410 = 23,500 M^–1 cm^–1) (Figure S10).

Compound: C#CCN(C)Cc1ccc(Cn2nnc3c(Sc4nc5ccccc5o4)ncnc32)cc1 [Compound 9a, N-(4-((7-(Benzo[d]oxazol-2-ylthio)-3H-[1,2,3]triazolo[4,5-d]pyrimidin-3-yl)methyl)benzyl)-N-methylprop-2-yn-1-amine]
- selectivity index NOX2/NOX1 [1]: 39
- selectivity index NOX2/NOX4 [1]: 74
- selectivity index NOX2/NOX5 [1]: 9
- selectivity for MAOB over MAOA [2]: 465 fold
